Data: patent EP4703474A1, “ANTI-LRRC15 ANTIBODY” (priority 2023, dated 2024)
Numbering of substitutions follows the chain as printed.

Key:
[1] = target: T1, rat LRRC15 extracellular domain expressed on HEK293α (pDisplay-ratLRRC15 ECD) (rat, UniProt Q8R5M3 22-535); test: flow cytometry, transfected HEK293α, 10 µg/mL
T1 construct: vector-derived parts not described; also called rLRRC15 ECD

[2] = target: T2, mouse LRRC15 extracellular domain expressed on HEK293α (pDisplay-mLRRC15 ECD) (mouse, UniProt Q80X72 22-536); test: flow cytometry, transfected HEK293α, 10 µg/mL
T2 construct: vector-derived parts not described

[3] = target: T3, mouse LRRC15 (endogenous, on Balb/3T3 cells) (mouse, UniProt Q80X72 22-579); test: flow cytometry, endogenous LRRC15 on mouse fibroblast line Balb/3T3
T3 construct: Endogenous protein of the mouse fibroblast line Balb/3T3; also called mLRRC15

Measured: binding result

B1: H02L01 antibody (antibody, human IgG1, kappa, L234A L235A, V domains shown)
VH: EVQLVESGGGLVQPGGSLRLSCAASGFTFRDYYMAWVRQAPGKGLEWVSSIGFDESRTYYADSVKGRFTISRDDSKNTLYLQMNSLRAEDTAVYYCARHGVSYYSGDNWFAYWGQGTLVTVSS
VL: DIQMTQSPSSLSASVGDRVTITCKSSQGLLYSGDQKNYLAWYQQKPGKAPKLLIYWASTRQSGVPSRFSGSGSGTDFTLTISSLQPEDFATYYCQQYYDPPYTFGQGTKVEIKR
notes: Humanized anti-LRRC15 antibody, human IgG1 / kappa; also called hR024 (hR024 H02 + hR024 L01)
binds: all assays above

B2: H02L01-V1 antibody (antibody, human IgG1, kappa, L234A L235A, V domains shown)
VH: B1 VH with Y103K
VL: B1 VL
notes: Humanized anti-LRRC15 antibody, human IgG1 / kappa; also called hR024 (hR024 H02-V1 + hR024 L01)
binds: all assays above

B3: H02L01-V2 antibody (antibody, human IgG1, kappa, L234A L235A, V domains shown)
VH: B1 VH with Y103R
VL: B1 VL
notes: Humanized anti-LRRC15 antibody, human IgG1 / kappa; also called hR024 (hR024 H02-V2 + hR024 L01)
binds: all assays above

B4: H09L03 antibody (antibody, human IgG1, kappa, L234A L235A, V domains shown)
VH: B1 VH with S49A, N77S, A97T
VL: B1 VL with A49S, S66D
notes: Humanized anti-LRRC15 antibody, human IgG1 / kappa; also called hR024 (hR024 H09 + hR024 L03)
binds: all assays above
